Results on 2 substances are retold here after publication PMC11806106.

The chains behind the UniProt entries cited, without tags or fusion partners. Residues count along the entry.
UniProt P41145, 1-363: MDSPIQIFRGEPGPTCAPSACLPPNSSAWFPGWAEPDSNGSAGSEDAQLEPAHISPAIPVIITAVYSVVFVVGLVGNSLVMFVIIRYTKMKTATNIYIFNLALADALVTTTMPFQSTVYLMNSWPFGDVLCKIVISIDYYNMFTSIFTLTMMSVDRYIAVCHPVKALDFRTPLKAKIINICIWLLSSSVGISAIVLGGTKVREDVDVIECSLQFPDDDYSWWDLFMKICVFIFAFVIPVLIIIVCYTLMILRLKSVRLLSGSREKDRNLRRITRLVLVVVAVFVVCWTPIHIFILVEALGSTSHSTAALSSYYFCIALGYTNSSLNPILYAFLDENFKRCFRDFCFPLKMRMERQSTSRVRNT
UniProt P41146, 1-351: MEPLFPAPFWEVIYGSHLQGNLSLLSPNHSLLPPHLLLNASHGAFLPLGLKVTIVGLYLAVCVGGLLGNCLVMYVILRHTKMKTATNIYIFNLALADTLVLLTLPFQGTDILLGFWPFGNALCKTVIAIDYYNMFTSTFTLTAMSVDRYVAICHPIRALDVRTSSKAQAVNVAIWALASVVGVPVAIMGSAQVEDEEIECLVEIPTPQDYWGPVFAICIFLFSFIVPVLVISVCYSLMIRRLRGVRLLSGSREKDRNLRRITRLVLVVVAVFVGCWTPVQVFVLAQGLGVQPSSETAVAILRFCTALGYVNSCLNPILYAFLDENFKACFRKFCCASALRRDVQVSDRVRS

In assay [1] the target is KOR FRET sensor (human kappa opioid receptor with sYFP2 in intracellular loop 3 and mTurquoise2 at the truncated C-terminus) (human) (UniProt P41145).
The target of assay [2] is KOR BRET sensor (KOR sensor with mTurq2 replaced by nLuc2) (human) (UniProt P41145).
The target of assay [3] is NOP FRET sensor (human nociceptin/orphanin FQ receptor with sYFP2 in intracellular loop 3 and mTurquoise2 at the truncated C-terminus) (human) (UniProt P41146).

With dynorphin A (peptide), the EC50 of the agonist-induced change of the FRET emission ratio of the KOR FRET conformation sensor (96-well plate reader) in assay [1] amounted to 219 nM. For the same substance, in assay [2], the EC50 of the agonist-induced change of the BRET ratio of the KOR BRET conformation sensor worked out at 209 nM.

In the case of nociceptin (1–13) amide (peptide), the EC50 of the agonist-induced change of the FRET emission ratio of the NOP FRET conformation sensor (96-well plate reader) in assay [3] was 63 nM.
